Experimental data from PMC12207880 (The Oncologist, 2025).

Tested on: patients with advanced solid tumors

## Cc1nc2c(F)cc(-c3nc(Nc4ccc5c(n4)CCN(CCN(C)C)C5)ncc3F)cc2n1C1CC1
100 mg QD, N = 3
  Neutrophil count decreased, Grade ≥3: 0 n (%)
  Platelet count decreased, Grade All: 0 n (%)
  Platelet count decreased, Grade ≥3: 0 n (%)
  Rash, Grade All: 0 n (%)
  Rash, Grade ≥3: 0 n (%)
  Vomiting, Grade All: 0 n (%)
  Vomiting, Grade ≥3: 0 n (%)
  γ-glutamyl transpeptidase increased, Grade All: 1 (33.3) n (%)
  γ-glutamyl transpeptidase increased, Grade ≥3: 0 n (%)
200 mg QD, N = 3
  Abdominal pain, Grade All: 0 n (%)
  Abdominal pain, Grade ≥3: 0 n (%)
  Alanine aminotransferase increased, Grade All: 0 n (%)
  Alanine aminotransferase increased, Grade ≥3: 0 n (%)
  Alkaline phosphatase increased, Grade All: 0 n (%)
  Alkaline phosphatase increased, Grade ≥3: 0 n (%)
  All TRAEs, Grade All: 3 (100) n (%)
  All TRAEs, Grade ≥3: 1 (33.3) n (%)
  Anaemia, Grade All: 2 (66.7) n (%)
  Anaemia, Grade ≥3: 0 n (%)
  Appetite decreased, Grade All: 1 (33.3) n (%)
  Appetite decreased, Grade ≥3: 0 n (%)
  Aspartate aminotransferase increased, Grade All: 0 n (%)
  Aspartate aminotransferase increased, Grade ≥3: 0 n (%)
  Blood creatinine increased, Grade All: 0 n (%)
  Blood creatinine increased, Grade ≥3: 0 n (%)
  Blood lactic dehydrogenase increased, Grade All: 0 n (%)
  Blood lactic dehydrogenase increased, Grade ≥3: 0 n (%)
  Diarrhoea, Grade All: 1 (33.3) n (%)
  Diarrhoea, Grade ≥3: 0 n (%)
  Dizziness, Grade All: 0 n (%)
  Dizziness, Grade ≥3: 0 n (%)
  Electrocardiogram QT prolonged, Grade All: 1 (33.3) n (%)
  Electrocardiogram QT prolonged, Grade ≥3: 0 n (%)
  Fatigue, Grade All: 0 n (%)
  Fatigue, Grade ≥3: 0 n (%)
  Haematuria, Grade All: 0 n (%)
  Haematuria, Grade ≥ 3: 0 n (%)
  Hypoalbuminemia, Grade All: 2 (66.7) n (%)
  Hypoalbuminemia, Grade ≥3: 0 n (%)
  Hypokalaemia, Grade All: 0 n (%)
  Hypokalaemia, Grade ≥3: 0 n (%)
  Hyponatraemia, Grade All: 1 (33.3) n (%)
  Hyponatraemia, Grade ≥3: 0 n (%)
  Leucocyte count decreased, Grade All: 1 (33.3) n (%)
  Leucocyte count decreased, Grade ≥3: 0 n (%)
  Lymphocyte count decreased, Grade All: 3 (100) n (%)
  Lymphocyte count decreased, Grade ≥3: 1 (33.3) n (%)
  Nausea, Grade All: 1 (33.3) n (%)
  Nausea, Grade ≥3: 0 n (%)
  Neutrophil count decreased, Grade All: 1 (33.3) n (%)
  Neutrophil count decreased, Grade ≥3: 0 n (%)
  Platelet count decreased, Grade All: 0 n (%)
  Platelet count decreased, Grade ≥3: 0 n (%)
  Rash, Grade All: 0 n (%)
  Rash, Grade ≥3: 0 n (%)
  Vomiting, Grade All: 0 n (%)
  Vomiting, Grade ≥3: 0 n (%)
  γ-glutamyl transpeptidase increased, Grade All: 0 n (%)
  γ-glutamyl transpeptidase increased, Grade ≥3: 0 n (%)
300 mg QD, N = 4
  Abdominal pain, Grade All: 3 (75.0) n (%)
  Abdominal pain, Grade ≥3: 0 n (%)
  Alanine aminotransferase increased, Grade All: 0 n (%)
  Alanine aminotransferase increased, Grade ≥3: 0 n (%)
  Alkaline phosphatase increased, Grade All: 0 n (%)
  Alkaline phosphatase increased, Grade ≥3: 0 n (%)
  All TRAEs, Grade All: 4 (100) n (%)
  All TRAEs, Grade ≥3: 1 (25.0) n (%)
  Anaemia, Grade All: 2 (50.0) n (%)
  Anaemia, Grade ≥3: 0 n (%)
  Appetite decreased, Grade All: 1 (25.0) n (%)
  Appetite decreased, Grade ≥3: 0 n (%)
  Aspartate aminotransferase increased, Grade All: 0 n (%)
  Aspartate aminotransferase increased, Grade ≥3: 0 n (%)
  Blood creatinine increased, Grade All: 1 (25.0) n (%)
  Blood creatinine increased, Grade ≥3: 0 n (%)
  Blood lactic dehydrogenase increased, Grade All: 0 n (%)
  Blood lactic dehydrogenase increased, Grade ≥3: 0 n (%)
  Diarrhoea, Grade All: 3 (75.0) n (%)
  Diarrhoea, Grade ≥3: 0 n (%)
  Dizziness, Grade All: 0 n (%)
  Dizziness, Grade ≥3: 0 n (%)
  Electrocardiogram QT prolonged, Grade All: 0 n (%)
  Electrocardiogram QT prolonged, Grade ≥3: 0 n (%)
  Fatigue, Grade All: 0 n (%)
  Fatigue, Grade ≥3: 0 n (%)
  Haematuria, Grade All: 1 (25.0) n (%)
  Haematuria, Grade ≥ 3: 0 n (%)
  Hypoalbuminemia, Grade All: 1 (25.0) n (%)
  Hypoalbuminemia, Grade ≥3: 0 n (%)
  Hypokalaemia, Grade All: 0 n (%)
  Hypokalaemia, Grade ≥3: 0 n (%)

Like-named read-outs stand apart in the source and are kept apart here.
